## Apparent affinities of Ab-91 variants for a coronavirus HR2 peptide

The measurements come from Engelhart et al. 2022 (doi:10.1038/s41597-022-01779-4) through the FLAb antibody collection.

Target: peptide PDVDLGDISGINAS, taken from heptad repeat 2 (HR2) of SARS-CoV-2 spike.

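The parent was found by panning a naive human phage display library on the peptide. Variants in AAYL51 differ from the parent at up to three CDR positions; double and triple changes were sampled at random. In AlphaSeq, yeast of one mating type display the scFv and yeast of the other type display the target. The frequency of each diploid, read from paired DNA barcodes, reflects how well the two displayed proteins bind. Read counts were normalised to the haploid input and turned into Kd by a linear fit to BCL2-family pairs of known affinity, for each replicate. There are three technical replicates.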

Parent: Ab-91, a human scFv built as VL, the linker GGGGSGGGGSGGGGS, VH. Only the CDRs of the heavy chain vary.
VL: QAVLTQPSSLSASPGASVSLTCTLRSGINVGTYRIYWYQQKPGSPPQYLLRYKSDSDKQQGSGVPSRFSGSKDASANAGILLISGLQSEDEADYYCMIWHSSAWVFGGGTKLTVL
VH: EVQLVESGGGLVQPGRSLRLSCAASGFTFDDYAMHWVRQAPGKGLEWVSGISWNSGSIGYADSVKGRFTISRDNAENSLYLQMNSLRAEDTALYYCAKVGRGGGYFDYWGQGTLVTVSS

Substitutions are numbered in sequence along the VH above, starting at 1 (not Kabat).
Scale: log10 of Kd in nM, estimated from mating counts; low values are strong binders.
The mean shown is taken over the replicates in which the pair was detected.
A pair that was not seen in any replicate is written "not detected"; this usually means weak binding, but a binder can also be missed.
Order: sorted from the lowest average up, undetected variants last.
As a blank, each scFv also met three strains without target: over library AAYL51, 21% of these pairings were detected, typically at 4.54 and seldom below 3.26. For each scFv, signals with the empty controls are counted beside the result.

mean log10 Kd (nM),detected,signal with controls,changes
0.53,3 of 3,2 of 9,D31A S57D
0.97,3 of 3,4 of 9,D62E G102K
1.21,3 of 3,3 of 9,T28N G56W G104D
1.41,3 of 3,4 of 9,G56C D62Y Y105S
1.56,3 of 3,1 of 9,D30K I58E G102C
1.63,3 of 3,0 of 9,N54D S57L Y108N
2.19,3 of 3,1 of 9,S52G F106L Y108Q
2.20,1 of 3,0 of 9,D31T S57M V64N
2.38,3 of 3,0 of 9,D31Y Y32S G103P
3.06,1 of 3,0 of 9,G26M Y32W G50W
3.38,2 of 3,2 of 9,W53N I58W
3.67,1 of 3,2 of 9,W53I D62R K65R
3.69,1 of 3,1 of 9,S57T G100F
3.71,1 of 3,1 of 9,H35E S55V G102V
3.81,1 of 3,3 of 9,I58Y G104Y
3.84,1 of 3,2 of 9,S52H W53C
3.98,1 of 3,2 of 9,F27M H35W G50P
4.03,2 of 3,1 of 9,I51N N54S S55C
4.05,1 of 3,3 of 9,T28K S57Q G103M
4.20,2 of 3,2 of 9,N54C G56Y G59Q
4.21,1 of 3,0 of 9,S55N G59T G100I
4.22,1 of 3,1 of 9,G26M F27V Y105K
4.33,2 of 3,2 of 9,T28G S52C I58W
4.34,2 of 3,0 of 9,G56H Y60G R101E
4.47,1 of 3,0 of 9,K65A R101K Y105R
4.57,1 of 3,6 of 9,G26W I51G G59I
4.61,1 of 3,0 of 9,S55F Y105L
4.69,2 of 3,6 of 9,T28A F29H G100P
4.71,2 of 3,2 of 9,F29R N54E V99S
4.72,2 of 3,4 of 9,I51L S52H
4.76,2 of 3,4 of 9,Y32G I51S R101H
4.81,1 of 3,4 of 9,I51A Y60A A61D
4.82,3 of 3,8 of 9,T28V D30C G59Q
4.90,1 of 3,0 of 9,A61N S63I G102T
4.94,2 of 3,4 of 9,T28V S57F Y105K
4.99,1 of 3,2 of 9,S52W S55N
5.07,2 of 3,5 of 9,I51S G102S D107G
5.13,3 of 3,5 of 9,K65W R101G Y108W
5.15,1 of 3,3 of 9,G50F I58E D107G
5.16,3 of 3,4 of 9,T28C G59P S63L
5.18,2 of 3,7 of 9,I51H K65E R101P
5.44,2 of 3,3 of 9,S55F A61N Y108G
5.55,3 of 3,4 of 9,D31R A61I V64Q
5.67,2 of 3,1 of 9,F29R D30P S55P
5.80,2 of 3,1 of 9,A33M D62S K65A
5.83,3 of 3,6 of 9,S52N W53K D62F
not detected,0 of 3,2 of 9,A61L Y105G D107P
not detected,0 of 3,1 of 9,D30R S52Y A61P
not detected,0 of 3,0 of 9,A33W S55N G102A
not detected,0 of 3,0 of 9,D31E A33E W53T
not detected,0 of 3,0 of 9,M34R I51R G56A
not detected,0 of 3,0 of 9,A33Q S57Y G100R
not detected,0 of 3,4 of 9,F27L S52N N54M
not detected,0 of 3,2 of 9,Y32I S57D F106P
not detected,0 of 3,1 of 9,S57E G59P G102N
not detected,0 of 3,1 of 9,M34N G104K Y108I
not detected,0 of 3,1 of 9,Y60H D62Q V64F
not detected,0 of 3,0 of 9,G50V G56S
not detected,0 of 3,2 of 9,F29K D31A S63V
not detected,0 of 3,0 of 9,G50F K65N R101L
not detected,0 of 3,0 of 9,Y32W V64L G103K
not detected,0 of 3,2 of 9,T28R Y105C
not detected,0 of 3,0 of 9,G26A M34K G104R
not detected,0 of 3,0 of 9,Y32P H35R D107R
not detected,0 of 3,3 of 9,Y32D D62S G102Q
not detected,0 of 3,1 of 9,V64F F106H Y108A
not detected,0 of 3,0 of 9,D30Y N54H A61M
not detected,0 of 3,0 of 9,D30L M34Q K65E
not detected,0 of 3,2 of 9,S57N G103M

Top 5 of the variants detected in all replicates, tightest first:

changes	mean log10 Kd (nM)	detected	signal with controls
D31A S57D	0.53	3 of 3	2 of 9
D62E G102K	0.97	3 of 3	4 of 9
T28N G56W G104D	1.21	3 of 3	3 of 9
G56C D62Y Y105S	1.41	3 of 3	4 of 9
D30K I58E G102C	1.56	3 of 3	1 of 9